From ChEMBL document CHEMBL5104139, “A critical update on the strategies towards small molecule inhibitors targeting Serine/arginine-rich (SR) proteins and Serine/arginine-rich proteins related kinases in alternative splicing” (Bioorg Med Chem, 2022)

By UniProt entry, the sequences of proteins in these tests, tags left out.
UniProt P78362, whole entry: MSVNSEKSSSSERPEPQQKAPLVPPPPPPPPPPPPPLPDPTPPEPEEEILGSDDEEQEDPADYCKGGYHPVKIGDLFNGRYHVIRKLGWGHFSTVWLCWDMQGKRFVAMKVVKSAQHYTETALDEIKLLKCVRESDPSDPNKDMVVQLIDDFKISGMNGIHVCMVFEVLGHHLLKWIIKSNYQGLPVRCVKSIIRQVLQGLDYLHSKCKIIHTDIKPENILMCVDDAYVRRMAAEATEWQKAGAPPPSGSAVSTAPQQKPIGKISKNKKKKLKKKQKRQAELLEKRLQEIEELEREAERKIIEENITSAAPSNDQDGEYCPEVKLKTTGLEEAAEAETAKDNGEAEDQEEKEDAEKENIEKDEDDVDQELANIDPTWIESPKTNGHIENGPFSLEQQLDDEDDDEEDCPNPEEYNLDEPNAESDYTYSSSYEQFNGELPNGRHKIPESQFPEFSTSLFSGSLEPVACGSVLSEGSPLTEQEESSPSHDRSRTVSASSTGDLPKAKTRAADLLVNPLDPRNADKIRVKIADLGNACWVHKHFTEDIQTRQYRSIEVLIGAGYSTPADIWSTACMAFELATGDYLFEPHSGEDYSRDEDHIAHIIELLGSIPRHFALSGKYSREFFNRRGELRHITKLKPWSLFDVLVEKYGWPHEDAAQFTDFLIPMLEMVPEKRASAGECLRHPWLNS

Target: SRSF protein kinase 2 (Homo sapiens, UniProt P78362)

**Q.** `CCc1cc2c(cc1-c1cccc(S(=O)(=O)F)c1)C(C)(C)c1[nH]c3cc(C#N)ccc3c1C2=O` was tested. Which IC50 did it give?
**A.** 0.098 µM
